{"source": "paper PMC5947317", "about": "(ACS chemical biology, 2017)", "key": {"[1]": {"target": "T1, UCHL1 (Homo sapiens, UniProt P09936)", "T1 sequence (P09936 1-223)": "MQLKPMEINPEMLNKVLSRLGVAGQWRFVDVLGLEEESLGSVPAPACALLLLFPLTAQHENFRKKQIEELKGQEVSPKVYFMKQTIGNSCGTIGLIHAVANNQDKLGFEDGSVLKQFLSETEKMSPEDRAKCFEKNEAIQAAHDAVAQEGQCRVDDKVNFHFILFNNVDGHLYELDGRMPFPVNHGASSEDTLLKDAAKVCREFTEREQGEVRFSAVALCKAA", "test": "Rapid dilution reversibility assay", "format": "biochemical", "conditions": "incubated at ten times IC50, diluted 100-fold; normalized to DMSO"}, "[2]": {"target": "T1, UCHL1", "test": "Ub-AMC assay with recombinant UCHL1", "format": "biochemical", "conditions": "UCHL1 versus UCHL3, UCHL5, USP2 catalytic core, USP15"}}}
{"smiles": "CO[C@H]1/C=C/O[C@@]2(C)Oc3c(C)c(O)c4c(O)c(c(/C=N/N5CCN(C)CC5)c(O)c4c3C2=O)NC(=O)/C(C)=C\\C=C\\[C@H](C)[C@H](O)[C@@H](C)[C@@H](O)[C@@H](C)[C@H](OC(C)=O)[C@@H]1C", "note": "[rifampicin, reference compound]", "values": [{"measurement": "recovered UCHL1 activity after rapid dilution", "setting": "[1]", "result": "> 80", "unit": "%"}, {"measurement": "selectivity among UCHs and USPs tested", "setting": "[2]", "result": "more promiscuous inhibitors"}]}
